Results reported in patent US20240390496A1, “SINGLE-CHAIN AND MULTI-CHAIN SYNTHETIC ANTIGEN RECEPTORS FOR DIVERSE IMMUNE CELLS” (UNIVERSITY OF SOUTHERN CALIFORNIA, published 2024).

What follows are binders tested against T1, CD19 on RAJI, Nalm6 or RS4;11 cells (human, UniProt P15391 20-556) (assay: cell-based or functional assay).
T1 sequence (looked up): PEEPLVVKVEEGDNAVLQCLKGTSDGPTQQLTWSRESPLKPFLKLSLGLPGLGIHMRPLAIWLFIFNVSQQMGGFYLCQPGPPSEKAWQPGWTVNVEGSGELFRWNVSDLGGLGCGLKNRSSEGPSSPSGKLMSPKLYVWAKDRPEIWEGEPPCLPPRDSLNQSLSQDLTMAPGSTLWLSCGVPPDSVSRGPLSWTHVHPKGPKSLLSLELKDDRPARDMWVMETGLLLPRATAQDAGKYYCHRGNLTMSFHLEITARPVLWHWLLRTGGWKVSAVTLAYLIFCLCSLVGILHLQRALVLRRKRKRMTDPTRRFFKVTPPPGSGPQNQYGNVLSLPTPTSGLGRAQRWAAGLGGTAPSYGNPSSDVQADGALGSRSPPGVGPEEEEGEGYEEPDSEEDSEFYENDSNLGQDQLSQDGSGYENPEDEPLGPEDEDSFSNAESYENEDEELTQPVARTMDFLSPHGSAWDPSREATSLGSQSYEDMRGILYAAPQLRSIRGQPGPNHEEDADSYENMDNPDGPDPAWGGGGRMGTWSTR

Binder | NFAT-GFP assay: JNG cells with the SAR co-cultured ~24 h with RAJI
 (receptor) DIQMTQSPSSLSASVGDRVTITCKASDHINNWLAWYQQKPGQAPKLLIYGATTLETGVPSRFSGSGSGTDYTLTISSLQPEDFATYYCQQSWNTPWTFGQGTKLEIKRLELWVSQPPEIRTLEGSSAFLPCSFNASQGRLAIGSVTWFRDEVVPGKEVRNGTPEFRGRLAPLASSRFLHDHQAELHIRDVRGHDASIYVCRVEVLGLGVGTGNGTRLVVEKEHPQLGAGTVLLLRAGFYAVSFLSVAVGSTVYYQGKCLTWKGPRRQLPAVVPAPLPPPCGSSAHLLPPVPGGRAKRSGSGATNFSLLKQAGDVEENPGPTSMDWIWRILFLVGAATGAHSFEQVQLQQPGAELVKPGASVKMSCKASGYAFSSYWINWMKQKPGQGLEWIGQIYPGDGDTNYNGKFKGRATLTADTSSSTAYMQLSSLTSEDSAVYFCARSITTVVGCAMDYWGQGTSVTVSSTRGDIENTSLAPEDPTFPADTWGTYLLTTETGLQKDHALWDHTAQNLLRMGLAFLVLVALVWFLVEDWLSRKRTRERASRASTWEGRRRLNTQTLRAKRSGSGVKQTLNFDLLKLAGDVESNPGPSRGHMTEYKPTVRLATRDDVPRAVRTLAAAFADYPATRHTVDPDRHIERVTELQELFLTRVGLDIGKVWVADDGAAVAVWTTPESVEAGAVFAEIGPRMAELSGSRLAAQQQMEGLLAPHRPKEPAWFLATVGVSPDHQGKGLGSAVVLPGVEAAERAGVPAFLETSAPRNLPFYERLGFTVTADVEVPEGPRTWCMTRKPGA | 0.8 + score
 (receptor) DIQMTQSPSSLSASVGDRVTITCKASDHINNWLAWYQQKPGQAPKLLIYGATTLETGVPSRFSGSGSGTDYTLTISSLQPEDFATYYCQQSWNTPWTFGQGTKLEIKRLEQSKAQVLQSVAGQTLTVRCQYPPTGSLYEKKGWCKEASALVCIRLVTSSKPRTMAWTSRFTIWDDPDAGFFTVTMTDLREEDSGHYWCRIYRPSDNSVSKSVRFYLVVSPASASTQTSWTPRDLVSSQTQTQSCVPPTAGARQAPESPSTIPVPSQPQNSTLRPGPAAPIALVPVFCGLLVAKSLVLSALLVWWGDIWWKTMMELRSLDTQKATCHLQQVTDLPWTSVSSPVEREILYHTVARTKISDDDDEHTLRAKRSGSGATNFSLLKQAGDVEENPGPTSMDWIWRILFLVGAATGAHSFEQVQLQQPGAELVKPGASVKMSCKASGYAFSSYWINWMKQKPGQGLEWIGQIYPGDGDTNYNGKFKGRATLTADTSSSTAYMQLSSLTSEDSAVYFCARSITTVVGCAMDYWGQGTSVTVSSTRGDIENTSLAPEDPTFPADTWGTYLLTTETGLQKDHALWDHTAQNLLRMGLAFLVLVALVWFLVEDWLSRKRTRERASRASTWEGRRRLNTQTLRAKRSGSGVKQTLNFDLLKLAGDVESNPGPSRGHMTEYKPTVRLATRDDVPRAVRTLAAAFADYPATRHTVDPDRHIERVTELQELFLTRVGLDIGKVWVADDGAAVAVWTTPESVEAGAVFAEIGPRMAELSGSRLAAQQQMEGLLAPHRPKEPAWFLATVGVSPDHQGKGLGSAVVLPGVEAAERAGVPAFLETSAPRNLPFYERLGFTVTADVEVPEGPRTWCMTRKPGA | 0.5 + score
 (receptor) DIQMTQSPSSLSASVGDRVTITCKASDHINNWLAWYQQKPGQAPKLLIYGATTLETGVPSRFSGSGSGTDYTLTISSLQPEDFATYYCQQSWNTPWTFGQGTKLEIKRLEKSVRFYLVVSPASASTQTSWTPRDLVSSQTQTQSCVPPTAGARQAPESPSTIPVPSQPQNSTLRPGPAAPIALVPVFCGLLVAKSLVLSALLVWWGDIWWKTMMELRSLDTQKATCHLQQVTDLPWTSVSSPVEREILYHTVARTKISDDDDEHTLRAKRSGSGATNFSLLKQAGDVEENPGPTSMDWIWRILFLVGAATGAHSFEQVQLQQPGAELVKPGASVKMSCKASGYAFSSYWINWMKQKPGQGLEWIGQIYPGDGDTNYNGKFKGRATLTADTSSSTAYMQLSSLTSEDSAVYFCARSITTVVGCAMDYWGQGTSVTVSSTRKSVRFYLVVSPASASTQTSWTPRDLVSSQTQTQSCVPPTAGARQAPESPSTIPVPSQPQNSTLRPGPAAPIALVPVFCGLLVAKSLVLSALLVWWGDIWWKTMMELRSLDTQKATCHLQQVTDLPWTSVSSPVEREILYHTVARTKISDDDDEHTLRAKRSGSGVKQTLNFDLLKLAGDVESNPGPSRGHMTEYKPTVRLATRDDVPRAVRTLAAAFADYPATRHTVDPDRHIERVTELQELFLTRVGLDIGKVWVADDGAAVAVWTTPESVEAGAVFAEIGPRMAELSGSRLAAQQQMEGLLAPHRPKEPAWFLATVGVSPDHQGKGLGSAVVLPGVEAAERAGVPAFLETSAPRNLPFYERLGFTVTADVEVPEGPRTWCMTRKPGA | 0.4 + score
 (receptor) DIQMTQSPSSLSASVGDRVTITCKASDHINNWLAWYQQKPGQAPKLLIYGATTLETGVPSRFSGSGSGTDYTLTISSLQPEDFATYYCQQSWNTPWTFGQGTKLEIKRLELWVSQPPEIRTLEGSSAFLPCSFNASQGRLAIGSVTWFRDEVVPGKEVRNGTPEFRGRLAPLASSRFLHDHQAELHIRDVRGHDASIYVCRVEVLGLGVGTGNGTRLVVEKEHPQLGAGTVLLLRAGFYAVSFLSVAVGSTVYYQGKCLTWKGPRRQLPAVVPAPLPPPCGSSAHLLPPVPGGRAKRSGSGATNFSLLKQAGDVEENPGPTSMDWIWRILFLVGAATGAHSFEQVQLQQPGAELVKPGASVKMSCKASGYAFSSYWINWMKQKPGQGLEWIGQIYPGDGDTNYNGKFKGRATLTADTSSSTAYMQLSSLTSEDSAVYFCARSITTVVGCAMDYWGQGTSVTVSSTRLWVSQPPEIRTLEGSSAFLPCSFNASQGRLAIGSVTWFRDEVVPGKEVRNGTPEFRGRLAPLASSRFLHDHQAELHIRDVRGHDASIYVCRVEVLGLGVGTGNGTRLVVEKEHPQLGAGTVLLLRAGFYAVSFLSVAVGSTVYYQGKCLTWKGPRRQLPAVVPAPLPPPCGSSAHLLPPVPGGRAKRSGSGVKQTLNFDLLKLAGDVESNPGPSRGHMTEYKPTVRLATRDDVPRAVRTLAAAFADYPATRHTVDPDRHIERVTELQELFLTRVGLDIGKVWVADDGAAVAVWTTPESVEAGAVFAEIGPRMAELSGSRLAAQQQMEGLLAPHRPKEPAWFLATVGVSPDHQGKGLGSAVVLPGVEAAERAGVPAFLETSAPRNLPFYERLGFTVTADVEVPEGPRTWCMTRKPGA | 0.3 + score
 (receptor) DIQMTQSPSSLSASVGDRVTITCKASDHINNWLAWYQQKPGQAPKLLIYGATTLETGVPSRFSGSGSGTDYTLTISSLQPEDFATYYCQQSWNTPWTFGQGTKLEIKRLEGQPKANPTVTLFPPSSEELQANKATLVCLISDFYPGAVTVAWKADGSPVKAGVETTKPSKQSNNKYAASSYLSLTPEQWKSHRSYSCQVTHEGSTVEKTVAPTECSGTLPIQVEQNFLSNLFVASWIAVMIIFRIGMAVAIFCCFFFPSANERCKSKVVPCRQKQWRTSFDSKKLDLNYNHFESMEWSHRSRRGRIWGRAKRSGSGATNFSLLKQAGDVEENPGPTSMDWIWRILFLVGAATGAHSFEQVQLQQPGAELVKPGASVKMSCKASGYAFSSYWINWMKQKPGQGLEWIGQIYPGDGDTNYNGKFKGRATLTADTSSSTAYMQLSSLTSEDSAVYFCARSITTVVGCAMDYWGQGTSVTVSSTRGDIENTSLAPEDPTFPADTWGTYLLTTETGLQKDHALWDHTAQNLLRMGLAFLVLVALVWFLVEDWLSRKRTRERASRASTWEGRRRLNTQTLRAKRSGSGVKQTLNFDLLKLAGDVESNPGPSRGHMTEYKPTVRLATRDDVPRAVRTLAAAFADYPATRHTVDPDRHIERVTELQELFLTRVGLDIGKVWVADDGAAVAVWTTPESVEAGAVFAEIGPRMAELSGSRLAAQQQMEGLLAPHRPKEPAWFLATVGVSPDHQGKGLGSAVVLPGVEAAERAGVPAFLETSAPRNLPFYERLGFTVTADVEVPEGPRTWCMTRKPGA | 0.6 + score
